We go through 1 substance from article PMC5572205 (ACS chemical neuroscience, 2015).

Chains of the proteins cited; added tags and fusions are not shown. Lines headed by an entry give the natural chain unless they say otherwise; changes in a name come on top.
UniProt P41146: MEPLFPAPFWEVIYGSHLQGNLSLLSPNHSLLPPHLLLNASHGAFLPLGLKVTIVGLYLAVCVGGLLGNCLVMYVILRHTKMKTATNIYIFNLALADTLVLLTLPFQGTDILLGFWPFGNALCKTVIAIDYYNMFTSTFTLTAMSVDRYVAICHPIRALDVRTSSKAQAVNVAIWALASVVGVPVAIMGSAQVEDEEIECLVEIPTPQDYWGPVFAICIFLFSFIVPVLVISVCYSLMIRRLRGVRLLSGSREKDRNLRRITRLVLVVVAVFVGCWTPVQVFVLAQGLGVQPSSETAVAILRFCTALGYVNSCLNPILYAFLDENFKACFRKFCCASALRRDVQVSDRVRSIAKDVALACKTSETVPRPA

Test [1] has as its target NOP receptor (arrestin3 recruitment) (Homo sapiens, UniProt P41146). The conditions noted are these: BRET arrestin3 recruitment; mean ± SEM. (In general: BRET reads energy transfer from a luciferase to a nearby fluorophore.)
In test [2] the target is human NOP receptor (Homo sapiens, UniProt P41146). Particulars: mean ± SEM, three to four experiments in triplicate.

For the substance nociceptin/orphanin FQ [N/OFQ], in test [1], the “arrestin3 % of N/OFQ EMAX” value was 100 ± 12%. Besides, the “cAMP mobilization % of N/OFQ EMAX” value in test [2] was found to be 100 ± 4%.
